Reference: ChEMBL document CHEMBL5543060, “Technologies of targeting histone deacetylase in drug discovery: Current progress and emerging prospects” (Eur J Med Chem, 2023)

The chains behind the UniProt entries cited, without tags or fusion partners.
UniProt Q13547, whole entry: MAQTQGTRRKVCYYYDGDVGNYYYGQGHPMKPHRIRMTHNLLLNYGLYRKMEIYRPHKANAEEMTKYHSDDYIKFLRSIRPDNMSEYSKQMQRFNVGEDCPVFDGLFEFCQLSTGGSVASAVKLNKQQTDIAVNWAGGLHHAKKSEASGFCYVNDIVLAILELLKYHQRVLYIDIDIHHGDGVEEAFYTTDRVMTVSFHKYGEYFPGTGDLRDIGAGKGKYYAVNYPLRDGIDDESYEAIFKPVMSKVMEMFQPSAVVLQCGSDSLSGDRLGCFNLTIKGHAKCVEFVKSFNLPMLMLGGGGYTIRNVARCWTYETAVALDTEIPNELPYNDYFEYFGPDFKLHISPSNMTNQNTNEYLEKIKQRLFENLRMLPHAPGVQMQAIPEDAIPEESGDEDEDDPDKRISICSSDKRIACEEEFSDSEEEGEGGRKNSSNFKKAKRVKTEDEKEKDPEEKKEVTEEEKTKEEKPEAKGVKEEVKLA

Biological target: Histone deacetylase 1 (Homo sapiens, UniProt Q13547)
Experiment: Inhibition of human recombinant HDAC1 using Ac-RHKK(Acetyl)-AMC peptide as fluorogenic substrate pre-incubated for 30 mins followed by substrate addition and measured for 60 mins by fluorescence based analysis

With `C[C@H](NC(=O)c1nc(-c2ncc(-c3ccccc3)s2)sc1C1CC1)c1ccc(C(=O)NO)cc1` the IC50 was 4 nM.
